Apparent affinities of Ab-14 variants for a coronavirus HR2 peptide

Data: MIT Lincoln Laboratory AlphaSeq set, Engelhart et al. 2022, doi:10.1038/s41597-022-01779-4, as distributed in FLAb.

Antigen: PDVDLGDISGINAS, a 14-residue peptide of the SARS-CoV-2 spike HR2 region.

Parent: Ab-14, a human scFv built as VH, three GGGGS repeats, VL. Only the CDRs of the light chain vary.
VH: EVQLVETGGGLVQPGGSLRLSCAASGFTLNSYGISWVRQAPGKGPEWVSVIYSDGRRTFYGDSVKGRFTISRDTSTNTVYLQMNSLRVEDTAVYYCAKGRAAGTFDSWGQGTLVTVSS
VL: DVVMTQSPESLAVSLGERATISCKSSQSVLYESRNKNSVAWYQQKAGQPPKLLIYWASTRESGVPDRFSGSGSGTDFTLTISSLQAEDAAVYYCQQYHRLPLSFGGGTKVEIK

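The parent was found by panning a naive human phage display library on the peptide. AAYL50 was designed without a model: most single CDR substitutions and a random sample of double and triple ones. Affinity was read by AlphaSeq, a pooled yeast mating assay with surface-displayed partners. Mating (16 h, 30 °C) was followed by selection of diploids and sequencing of their barcodes. Read counts were normalised to the haploid input and turned into Kd by a linear fit to BCL2-family pairs of known affinity, for each replicate. There are three technical replicates.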

Each variant is given by its three light chain CDRs, as the data file delimits them; those of the parent are KSSQSVLYESRNKNSVA, WASTRES, QQYHRLPLS. Scale: log10 of Kd in nM, estimated from mating counts; low values are strong binders. Where no diploid with the target was found in that replicate, the entry reads "n.d.": below detection, most likely a poor binder, though not proof of it. As a blank, each scFv also met three strains without target: over library AAYL50, 18% of these pairings were detected, typically at 4.19 and seldom below 2.99. For each scFv, signals with the empty controls are counted beside the result, with their mean in brackets.

CDR-L1,CDR-L2,CDR-L3,log10 Kd (nM) by replicate,empty controls
KSSQSVLYESRVKNSVA,WASQKES,QQYHRLPLS,2.18 1.91 2.16,5/9 (4.09)
KSSQSVLQESRNKNSVA,WASTRES,QQYHRLPLS,0.76 0.69 0.81,1/9 (2.43)
KSSQSVDYESRNKNSQA,WASMRES,QQYHRLPLS,n.d. n.d. n.d.,0/9
KSSQSVLYYSRNKNSVA,DAKTRES,QQYHRLPLS,-0.08 0.15 0.00,2/9 (4.23)
KSSQSVLYISRNKNSVA,WAFTRES,QQYHRLPLS,4.72 3.99 5.90,9/9 (4.34)
KSSQSVLYESRRKNSVA,MASTRES,QQSHRLPLS,2.75 2.93 2.66,2/9 (4.53)
KSSQSVLYESRNKNSVA,WASSEES,QQYHRLPLS,n.d. n.d. n.d.,2/9 (3.77)
KSSQSVLYESRNLNSVA,WASTRES,QGYGRLPLS,3.14 2.57 2.46,0/9
KTSQSVLYELRNKVSVA,WASTRES,QQYHRLPLS,2.86 5.13 3.23,1/9 (3.37)
KSSQSVLYESRNKNSVA,WSSTREN,YQYHRLPLS,n.d. n.d. n.d.,2/9 (3.02)
KSSQSVEYESRNKNSVA,FASTRIS,QQYHRLPLS,n.d. n.d. n.d.,0/9
KSMQSVLYECENKNSVA,WASTRES,QQYHRLPLS,-0.11 0.23 -0.01,1/9 (2.52)
KSSQSHLYESRNKNSVA,WAMTRES,QQYHRLPMS,n.d. n.d. n.d.,3/9 (3.79)
KSSQSVLYESRNKNSVL,WASTRES,QPYHRLPLS,n.d. n.d. 5.97,2/9 (5.16)
KWSQSVLYNSRNKNSVA,WASTRES,QQYHRLPLD,2.33 1.97 2.81,1/9 (3.44)
KSSQSVNYESRNKNSVA,PASTRES,QQYHELPLS,n.d. n.d. n.d.,3/9 (4.15)
KSSNSVLYESRNKTSVA,WASTRES,QQYHALPLS,2.33 1.97 2.50,1/9 (5.04)
KSSQSVLYESRNKNSNM,WASTREC,QQYHRLPLS,n.d. n.d. n.d.,2/9 (3.44)
KSSQSVLYEQRNCNSVA,WASTREN,QQYHRLPLS,0.66 0.91 0.84,2/9 (4.32)
MGSQSVLYESRNKNSVA,WASTRES,QGYHRLPLS,n.d. 3.96 n.d.,1/9 (4.32)
NSSQQHLYESRNKNSVA,WASTRES,QQYHRLPLS,1.32 1.45 1.37,2/9 (5.24)
MSSQSVLYESENKNSVA,WASTRGS,QQYHRLPLS,0.77 0.99 1.00,3/9 (3.75)
KSSQSVLYESYNKNSYA,WTSTRES,QQYHRLPLS,n.d. n.d. n.d.,0/9
KSSQSVLYYSLNKNSNA,WASTRES,QQYHRLPLS,n.d. n.d. 4.44,0/9
KSDQQVLYEKRNKNSVA,WASTRES,QQYHRLPLS,2.55 n.d. n.d.,0/9
KSSQSVLYESRNKNSQA,WASTRDS,QQYHRYPLS,n.d. n.d. n.d.,4/9 (4.33)
KSSQSLLYESRNKNSVA,WASTEES,QQHHRLPLS,n.d. n.d. n.d.,1/9 (4.16)
KSSWSVLYEHRNKNSVA,WASTRES,QQYHSLPLS,1.34 1.21 1.41,5/9 (4.51)
KSSQHVGYESRNKNSVA,WASTRES,QQYHALPLS,1.03 1.07 0.93,2/9 (3.65)
KSSQSVLYERRNGNSVA,WASMRES,QQYHRLPLS,1.82 1.98 1.73,0/9
KSSQSLLYESRNKNSVA,WASTRRS,QQYERLPLS,1.88 2.14 2.20,0/9
KSSQSVLYESRNKNSVY,WASTRES,QQYHRLPLS,n.d. n.d. n.d.,0/9